The list shows a part of the results, in another mix than the full data. Results filed as inconclusive are left out. Calls of active or inactive are those of the source. The call rests on the fitted dose curve; in most records, active means well fitted inhibition curve with a large enough effect; inconclusive means small, poorly fitted or top-dose-only effect, or another doubt; inactive means no such curve, though single readings can be large or run the other way.
target: DNA polymerase kappa (Homo sapiens) (UniProt Q9UBT6); experiment: qHTS for Inhibitors of Polymerase Kappa; conditions: purified Pol kappa, fluorescent DNA synthesis assay, 10 min; at 107 µM (top of the series) unless noted
Procedure: The processing and repair of DNA interstrand crosslinks (ICL) in eukaryotic cells are extremely complex, potentially involving multiple DNA repair and damage tolerance pathways, including homologous recombination, nucleotide excision repair, translesion synthesis (TLS), and cell cycle checkpoints.
To that end, in a collaboration between the Oregon Health & Science University and the NIH Chemical Genomics Center a 1536-well high-throughput screen was developed. This fluorescent screen was assayed against the NIH Molecular Libraries Small Molecule Repository (MLSMR) to discover inhibitors of Pol Kappa.
NIH Chemical Genomics Center [NCGC]
NIH Molecular Libraries Probe Centers Network [MLPCN]
Assay Submitter (PI): Stephen Lloyd, Oregon Health & Science University
Three microliters of reagents (buffer in column 3 and 4 as negative control and 10 nM Pol kappa in columns 1, 2, and 5-48) were dispensed into a 1536-well black solid-bottom plate. Compounds (23 nL) were transferred via Kalypsys pin tool equipped with 1536-pin array. The plates were then incubated for 15 min at room temperature, and 1 uL substrate (50 nM final concentration) were then added to start the reaction and kinetically read twice at 0 min and 10 min on the Viewlux reader
On the % scale 0 is the no-effect control and ±100 the full control effect.

By UniProt entry, the sequences of proteins in these tests, tags left out.
UniProt Q9UBT6, whole entry: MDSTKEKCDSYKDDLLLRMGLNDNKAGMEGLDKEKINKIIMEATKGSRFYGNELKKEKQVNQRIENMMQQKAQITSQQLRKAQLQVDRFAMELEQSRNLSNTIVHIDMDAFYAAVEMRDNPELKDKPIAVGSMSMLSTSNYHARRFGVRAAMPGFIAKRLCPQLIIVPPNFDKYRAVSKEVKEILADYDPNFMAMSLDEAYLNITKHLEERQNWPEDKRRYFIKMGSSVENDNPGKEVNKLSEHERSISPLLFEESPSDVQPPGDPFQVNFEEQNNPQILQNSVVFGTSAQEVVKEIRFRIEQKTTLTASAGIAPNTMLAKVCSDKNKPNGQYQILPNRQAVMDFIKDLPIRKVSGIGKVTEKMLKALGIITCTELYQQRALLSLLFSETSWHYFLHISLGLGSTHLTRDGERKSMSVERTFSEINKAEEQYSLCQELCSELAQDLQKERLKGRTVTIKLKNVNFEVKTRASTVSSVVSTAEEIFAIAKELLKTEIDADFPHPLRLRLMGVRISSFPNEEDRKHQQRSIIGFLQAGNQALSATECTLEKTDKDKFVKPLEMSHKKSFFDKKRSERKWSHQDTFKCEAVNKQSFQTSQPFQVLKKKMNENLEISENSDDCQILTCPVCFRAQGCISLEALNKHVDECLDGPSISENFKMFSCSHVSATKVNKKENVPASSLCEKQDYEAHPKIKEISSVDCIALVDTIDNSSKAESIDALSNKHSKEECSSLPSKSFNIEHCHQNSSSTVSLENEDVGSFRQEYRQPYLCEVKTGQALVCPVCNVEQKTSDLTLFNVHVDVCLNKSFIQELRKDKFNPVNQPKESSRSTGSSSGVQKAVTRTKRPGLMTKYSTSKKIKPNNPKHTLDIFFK

| SMILES | activity, negative = inhibition |
| --- | --- |
| CCN(CC)CCCOC(=O)C(O)(c1ccccc1)c1ccccc1 | inactive: -11.7% |
| O=[N+]([O-])c1ccc(-c2cc([N+](=O)[O-])c(O)c([N+](=O)[O-])c2)cc1 | inactive: -12.9% |
| CN(C)C(=O)c1cc([N+](=O)[O-])cc2c1-c1c(cc([N+](=O)[O-])cc1[N+](=O)[O-])C2=O | inactive: -3.54% |
| CS(=O)(=O)c1cc([N+](=O)[O-])c2no[n+]([O-])c2c1 | inactive: -29% |
| Cc1ccc(NCCc2c([N+](=O)[O-])cc([N+](=O)[O-])cc2[N+](=O)[O-])cc1 | inactive: -11.5% |
| CN1CCCCC1COC(=O)C1(O)c2ccccc2CCc2ccccc21 (configuration not stated) | inactive: -10.7% |
| O=[N+]([O-])c1ncn(CCn2cnc([N+](=O)[O-])n2)n1 | inactive: 6.99% |
| O=[N+]([O-])c1ccc(OP2(=O)COCCO2)cc1 (configuration not stated) | inactive: 4.46% |
| C(Cc1nn[nH]n1)Cc1nn[nH]n1 | inactive: -8.85% |
| CN(C)CCOC(=O)C(O)(c1ccccc1)C1CCCCC1 (configuration not stated) | inactive: -12.4% |
| CCN(CCCl)Cc1ccccc1C | inactive: -12.5% [at 60.1 µM] |
| c1nnnn1CCn1cnnn1 | inactive: -12.5% |
| O=C(OCCN1CCN(CCOCc2ccccc2)CC1)C(O)(c1ccccc1)c1ccccc1 | inactive: -6.51% |
| CCN(CC)CCCOC(=O)C(O)(c1ccccc1)C1CCCCC1 (configuration not stated) | inactive: -2.68% |
| O=c1c2cc([N+](=O)[O-])ccc2[nH]c2c([N+](=O)[O-])cc([N+](=O)[O-])cc12 | inactive: -17.5% |
| CCNC(=S)/N=C(\N)N[N+](=O)[O-] | inactive: 5.36% |
| O=[N+]([O-])c1cc([N+](=O)[O-])c2nc[nH]c2c1 | inactive: -13.3% |
| Nc1c(O)cc([N+](=O)[O-])cc1[N+](=O)[O-] | inactive: -29.8% |
| CCN(N=Nc1nonc1N)c1nonc1N | inactive: -19.3% |
| Nc1cc(N)c2nonc2c1[N+](=O)[O-] | inactive: -11.6% |
| CN(C)CCOC(=O)C(O)(c1ccccc1)C1CCCC1 (configuration not stated) | inactive: 2.84% |
| CC(C)=N/N=C(\N)N[N+](=O)[O-] | inactive: -2.42% |
| CCN(CC)CC(O)COC(=O)C(O)(c1ccccc1)C1CCCCC1 (configuration not stated) | inactive: -22.1% |
| O=C(OCCCN1CCCC1)C(O)(c1ccccc1)C1CCCCC1 (configuration not stated) | inactive: -0.7% |
| O=[N+]([O-])c1cc([N+](=O)[O-])c(CCNc2ccccc2)c([N+](=O)[O-])c1 | inactive: -28.2% |
| CCc1nc2c(n1)c1c(non1O)c1c2no[n+]1[O-] | inactive: -34.5% |
| O=[N+]([O-])c1ncn(CCn2ncnc2[N+](=O)[O-])n1 | inactive: -10.1% |

From PubChem BioAssay AID588579 (National Center for Advancing Translational Sciences (NCATS), 2011)
